One molecule from publication PMC3326523 (Cell, 2012) can be followed below.

Broadly, the Kd is the concentration at which binding is half-saturated. A word on the stoichiometry N: it is the number of molecules, sites or subunits per partner or assembly.

The test concerns the target BRD4(2), second bromodomain of BRD4 (human, UniProt O60885 333-460). Kind of test: ITC; peptide (mM stock) titrated into bromodomain (about 50 μM), by the concentrations in the tables; 10 or 15°C, 50 mM HEPES pH 7.5, 150 mM NaCl; single binding site model. As to conditions: both partners purified. Background: In ITC the heat of successive injections is recorded.

For the molecule IQGITKPAIRRY (acetyl-lysine at K31 (residue 6 of the peptide)) [H4K31 peptide IQGITKacPAIRRY], the affinity, expressed as Kd, was 170 ± 10.1 µM and the “stoichiometry N” value was 1.01 ± 0.122.
